In publication PMC8434007 (Molecules, 2021):

Target: T1, bovine thrombin (Bos taurus, UniProt P00735)
T1 construct: purchased Sigma-Aldrich (Milan, Italy)
Assay: biochemical

Q: How did the Ki turn out when `N=C(N)N1CCC(C(=O)Nc2cccc(OCc3cc(-c4ccc(Cl)s4)on3)c2)CC1` [Compound 31] was run?
A: The Ki was 15 µM.
